Assay results reported in patent US10442819B2, “Tricyclic compounds as inhibitors of mutant IDH enzymes” (Merck Sharp & Dohme Corp., priority 2014, dated 2019).

Sequences of proteins named here, by UniProt entry; tags and fusion partners are left off.
UniProt O75874, whole entry R132H: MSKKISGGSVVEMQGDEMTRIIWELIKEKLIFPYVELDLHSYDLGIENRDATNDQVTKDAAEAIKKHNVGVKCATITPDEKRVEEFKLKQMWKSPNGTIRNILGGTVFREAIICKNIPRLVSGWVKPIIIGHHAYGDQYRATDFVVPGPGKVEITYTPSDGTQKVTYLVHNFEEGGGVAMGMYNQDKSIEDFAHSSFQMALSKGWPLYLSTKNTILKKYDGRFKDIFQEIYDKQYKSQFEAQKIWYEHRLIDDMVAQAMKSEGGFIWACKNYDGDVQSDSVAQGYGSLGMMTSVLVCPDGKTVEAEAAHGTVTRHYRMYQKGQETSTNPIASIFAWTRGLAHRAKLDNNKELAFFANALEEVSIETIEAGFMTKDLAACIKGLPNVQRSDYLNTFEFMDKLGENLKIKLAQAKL

Target: R132H mutant IDH1 enzyme (Homo sapiens (Human), UniProt O75874, R132H)
Test: R132H IDH1 Enzymatic Assay
Format: biochemical
Details: R132H mutant IDH1 enzyme 1.5 nM final; luminescence readout; read-out: IC50

| Structure (SMILES) | IC50 [µM] |
| --- | --- |
| COC1CCC(C(=O)N2Cc3cccnc3Nc3ccc(N4CC[C@@H](OC)C4)cc32)CC1 (single isomer, unassigned) [Example 206] | 0.205 |
| CO[C@H]1CN(c2ccc3c(c2)N(C(=O)[C@H]2CC[C@H](OC)CC2)Cc2cccnc2N3)CC[C@@H]1F (single isomer, unassigned) [Example 214] | 0.327 |
| CO[C@H]1CN(c2ccc3c(c2)N(C(=O)[C@H]2CC[C@H](OC)CC2)Cc2cccnc2N3)CC[C@@H]1F (single isomer, unassigned) [Example 215] | 0.266 |
| CO[C@H]1CN(c2ccc3c(c2)N(C(=O)[C@H]2CC[C@H](OC)CC2)Cc2cccnc2N3)CC[C@H]1F (single isomer, unassigned) [Example 216] | 0.332 |
| CO[C@H]1CN(c2ccc3c(c2)N(C(=O)[C@H]2CC[C@H](OC)CC2)Cc2cccnc2N3)CC[C@H]1F (single isomer, unassigned) [Example 217] | 0.318 |
| CCO[C@H]1CC[C@@H](C(=O)N2Cc3cccnc3Nc3ccc(N4C[C@@H]5CC[C@H]4CO5)cc32)C[C@@H]1F (single isomer, unassigned) [Example 322] | 0.006 |
| CCO[C@H]1CC[C@@H](C(=O)N2Cc3cccnc3Nc3ccc(N4C[C@H]5CC[C@@H]4CO5)cc32)C[C@@H]1F (single isomer, unassigned) [Example 323] | 0.012 |
| CCO[C@H]1CC[C@H](C(=O)N2Cc3cccnc3Nc3ccc(N4C[C@@H]5CC[C@H]4CO5)cc32)CC1(F)F (single isomer, unassigned) [Example 324] | 0.018 |
| CC(C)(C)O[C@H]1CC[C@H](C(=O)N2Cc3cccnc3Nc3ccc(N4C[C@@H]5CC[C@H]4CO5)cc32)OC1 (single isomer, unassigned) [Example 329] | 0.012 |
| CC(C)(C)O[C@H]1CC[C@H](C(=O)N2Cc3cccnc3Nc3ccc(N4C[C@H]5CC[C@@H]4CO5)cc32)OC1 (single isomer, unassigned) [Example 330] | 0.012 |
| CCO[C@@H]1CC[C@@H](C(=O)N2Cc3cccnc3Nc3ccc(N4C[C@H]5CC[C@@H]4CO5)cc32)CC1(F)F (single isomer, unassigned) [Example 331] | 0.003 |
| CCO[C@H]1CC[C@H](C(=O)N2Cc3cccnc3Nc3ccc(N4C[C@@H]5CC[C@H]4CO5)cc32)OC1 (single isomer, unassigned) [Example 334] | 0.043 |
| CCO[C@@H]1CC[C@@H](C(=O)N2Cc3cccnc3Nc3ccc(N4C[C@H]5CC[C@@H]4CO5)cc32)OC1 (single isomer, unassigned) [Example 335] | 0.059 |
| CCO[C@H]1CC[C@H](C(=O)N2Cc3cccnc3Nc3ccc(N4CC5COCC(C4)O5)cc32)CC1(F)F (single isomer, unassigned) [Example 336] | 0.018 |
| CCO[C@H]1CC[C@@H](C(=O)N2Cc3cccnc3Nc3ccc(N4CC5COCC(C4)O5)cc32)CC1(F)F (single isomer, unassigned) [Example 337] | 0.014 |
| COC1C[C@@H]2CC[C@H]1CN2c1ccc2c(c1)N(C(=O)[C@H]1CC[C@H](OC(C)C)CC1)Cc1cccnc1N2 (single isomer, unassigned) [Example 339] | 0.03 |
| COC1C[C@H]2CC[C@@H]1CN2c1ccc2c(c1)N(C(=O)[C@H]1CC[C@H](OC(C)C)CC1)Cc1cccnc1N2 (single isomer, unassigned) [Example 340] | 0.03 |

| Structure (SMILES) | IC50 [µM] |
| --- | --- |
| O=C([C@H]1CC[C@H](NCC(F)(F)F)CC1)N1Cc2cccnc2Nc2ccc([C@@H]3CCCOC3)cc21 (single isomer, unassigned) [Example 375] | 0.062 |
| O=C([C@H]1CC[C@H](NCC(F)(F)F)CC1)N1Cc2cccnc2Nc2ccc([C@H]3CCCOC3)cc21 (single isomer, unassigned) [Example 376] | 0.059 |
| COC1CCC(C(=O)N2Cc3cccnc3Nc3ccc(C[C@H]4CCOC4)cc32)CC1 (single isomer, unassigned) [Example 420] | 0.093 |
| COC1CCC(C(=O)N2Cc3cccnc3Nc3ccc(C[C@H]4CCOC4)cc32)CC1 (single isomer, unassigned) [Example 426] | 0.059 |
| C[C@H](N[C@H]1CC[C@H](C(=O)N2Cc3cccnc3Nc3ccc([C@@H]4CCCOC4)cc32)CC1)C(F)(F)F (single isomer, unassigned) [Example 461] | 0.036 |
| C[C@H](N[C@H]1CC[C@H](C(=O)N2Cc3cccnc3Nc3ccc([C@H]4CCCOC4)cc32)CC1)C(F)(F)F (single isomer, unassigned) [Example 462] | 0.043 |
| O=C([C@H]1CC[C@@H](NC2(C(F)(F)F)CC2)C1)N1Cc2cccnc2Nc2ccc(N3CCOCC3)cc21 (single isomer, unassigned) [Example 471] | 0.051 |
| O=C([C@@H]1CC[C@H](NC2(C(F)(F)F)CC2)CO1)N1Cc2cccnc2Nc2ccc(N3CCOCC3)cc21 (single isomer, unassigned) [Example 472] | 0.057 |
| O=C([C@H]1CC[C@@H](N2CC(F)(F)C2)C1)N1Cc2cccnc2Nc2ccc(N3CCOCC3)cc21 (single isomer, unassigned) [Example 477] | 0.918 |
| O=C([C@H]1CC[C@H](N2CC(F)(F)C2)C1)N1Cc2cccnc2Nc2ccc(N3CCOCC3)cc21 (single isomer, unassigned) [Example 481] | 0.568 |
| CC(C)O[C@H]1CC[C@H](C(=O)N2Cc3cccnc3Nc3ccc(C4CCO[C@H]4C)cc32)OC1 (single isomer, unassigned) [Example 530, ((2R,5S)-5-isopropoxytetrahydro-2H-pyran-2-yl)(8-((2S,3R or 2R,3S)-2-methyltetrahydrofuran-3-yl)-5H-benzo[b]pyrido[2,3-e][1,4]diazepin-6(11H)-yl)methanone] | 0.029 |
| CC(C)O[C@H]1CC[C@H](C(=O)N2Cc3cccnc3Nc3ccc(C4CCO[C@@H]4C)cc32)OC1 (single isomer, unassigned) [Example 531, ((2R,5S)-5-isopropoxytetrahydro-2H-pyran-2-yl)(8-((2S,3R or 2R,3S)-2-methyltetrahydrofuran-3-yl)-5H-benzo[b]pyrido[2,3-e][1,4]diazepin-6(11H)-yl)methanone] | 0.013 |
| CC(C)O[C@H]1CC[C@H](C(=O)N2Cc3cccnc3Nc3ccc([C@H]4CC[C@@H](C)O4)cc32)OC1 (single isomer, unassigned) [Example 534] | 0.065 |
| CC(C)O[C@H]1CC[C@H](C(=O)N2Cc3cccnc3Nc3ccc([C@@H]4CC[C@H](C)O4)cc32)OC1 (single isomer, unassigned) [Example 535] | 0.034 |
| CC(C)O[C@H]1CC[C@H](C(=O)N2Cc3cccnc3Nc3ccc([C@H]4COC[C@H]4C)cc32)OC1 (single isomer, unassigned) [Example 536] | 0.035 |
| CC(C)O[C@H]1CC[C@H](C(=O)N2Cc3cccnc3Nc3ccc([C@@H]4COC[C@@H]4C)cc32)OC1 (single isomer, unassigned) [Example 537] | 0.011 |
| O=C([C@H]1CC[C@@H](OC2CC2(F)F)CC1)N1Cc2cccnc2Nc2ccc(N3CCOCC3)cc21 (stereo in doubt) [Example 105, 6-[(cis-4-{[(1S)-2,2-difluorocyclopropyl]oxy}-cyclohexyl)carbonyl]-8-morpholin-4-yl-6,11-dihydro-5H-pyrido[2,3-b][1,5]benzodiazepine] | 0.059 |
